Laboratory results from patent US20180066015A1, “INHIBITORS OF GROWTH FACTOR ACTIVATION ENZYMES” (Washington University, published 2018).
Each block holds one binder with its values, some of them ahead of it. *: point of attachment. kbt = C-terminal ketobenzothiazole, c1ccc2sc(*)nc2c1; Fmoc = O=C(OCC1c2ccccc2-c2ccccc21)*

Legend:
[1] = target: Hepatocyte Growth Factor Activator (HGFA) serine protease domain, N-terminal His-tag, recombinant (Homo sapiens (Human)) (UniProt Q04756); assay: fluorogenic inhibition assay
[2] = target: T1, matriptase (Charles Craik, UCSF), recombinant (Homo sapiens (Human), UniProt Q9Y5Y6); assay: fluorogenic inhibition assay
T1 sequence: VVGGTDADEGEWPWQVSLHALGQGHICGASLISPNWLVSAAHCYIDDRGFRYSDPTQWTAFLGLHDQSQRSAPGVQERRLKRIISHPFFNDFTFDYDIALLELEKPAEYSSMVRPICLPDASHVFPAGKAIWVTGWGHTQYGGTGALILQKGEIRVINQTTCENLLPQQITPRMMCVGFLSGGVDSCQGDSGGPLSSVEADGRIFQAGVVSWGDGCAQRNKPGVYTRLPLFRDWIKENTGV
Method: Inhibitors (11-pt serial dilutions, 0-20 μM final concentration in reaction) were serially diluted in DMSO (2% DMSO final concentration) and then mixed with either recombinant serine protease domain of HGFA [Z. Han, P. K. Harris, D. E. Jones, R. Chugani, T. Kim, M. Agarwal, W. Shen, S. A. Wildman, J. W. Janetka, Acs Med Chem Lett 2014, 5, 1219-1224], matriptase (Charles Craik, UCSF) or hepsin* (#4776-SE-010, R&D Systems, Minneapolis, Minn.) in black 384 well plates (Corning #3575. Corning, N.Y.). […] The final substrate concentrations for all assays were at the Kₘ for the respective enzymes. Changes in fluorescence (excitation at 380 nm and emission at 460 nm) were measured at room temperature over time in a Biotek Synergy 2 plate reader (Winnoski, Vt.). Using GraphPad Prism version 6.04 software program, (GraphPad Software, San Diego, Calif., www.graphpad.com), a four parameter curve fit was used to determine the inhibitor IC₅₀s from a plot of the mean reaction velocity versus the inhibitor concentration. The IC₅₀ values represent the average of three separate experimental determinations.
Fluorescent inhibitor and chromogenic proteolytic assays were performed in general accordance with the procedures described in Example 4 for compounds prepared in Examples 5 and 6.

Ki [1]: 1210 nM
B1: Fmoc-MR-kbt (peptide)
peptide: Fmoc-Met-Arg-kbt

Ki [2]: 23.6 nM
B2: H-LLR-kbt-Val-NH2 (peptide)
peptide: LLR
modifications: free N-terminus (H-); C-terminal ketobenzothiazole carrying Val-NH2
